Tested on: mice bone marrow cell chromosomal aberration induced by cyclophosphamide
Conditions: CP 50 mg/kg alone (positive group 4); F; 500 cells
From the text: The test used was the modified mice bone marrow cell micronucleus test as specified in “A Notice Concerning Issuance of the Revised Items of the ‘Health Food Functional Assessment Procedures and Testing Methods’,” a document from the Ministry of Public Health of the People's Republic of China, which is hereby incorporated by reference.
The mice were randomly divided by weight into 9 groups, 5 males and 5 females respectively per group. Animals in each group were given the following treatment:
The drug was prepared as a suspension of the required concentration in distilled water, and administered orally through tube at individual dosages of 0.2 mL/10 g of body weight. The negative control group was given distilled water of the equivalent volume through tube once a day for 30 days continuously. […] 4 hours before the mice were sacrificed they are given colchicine, and the bone marrow was extracted in order to prepare the chromosome samples in the routine way.
Samples from each group were observed. One hundred (100) metaphase cells per mouse were observed, and the chromosomal structures and the numbers of aberrations were recorded. Using SPSS for Windows 8.0 (t-test), a comparative analysis was made of the experimental data from the various dosage groups and the positive groups and tested to find out if there was any significant difference between the males and females within the group.

O=P1(N(CCCl)CCCl)NCCCO1 (stereo not shown) [CP, cyclophosphamide]
Cell Aberration Rate (%): 44.2%

— patent publication US20040009189A1, “Antimutagenic effects of ganoderma lucidum spores” (priority 2002, published 2004)
